ChEMBL document CHEMBL3112400, “Cannabinoid agonists showing BuChE inhibition as potential therapeutic agents for Alzheimer's disease” (Eur J Med Chem, 2014)

By UniProt entry, the sequences of proteins in these tests, tags left out.
UniProt P34972, whole entry: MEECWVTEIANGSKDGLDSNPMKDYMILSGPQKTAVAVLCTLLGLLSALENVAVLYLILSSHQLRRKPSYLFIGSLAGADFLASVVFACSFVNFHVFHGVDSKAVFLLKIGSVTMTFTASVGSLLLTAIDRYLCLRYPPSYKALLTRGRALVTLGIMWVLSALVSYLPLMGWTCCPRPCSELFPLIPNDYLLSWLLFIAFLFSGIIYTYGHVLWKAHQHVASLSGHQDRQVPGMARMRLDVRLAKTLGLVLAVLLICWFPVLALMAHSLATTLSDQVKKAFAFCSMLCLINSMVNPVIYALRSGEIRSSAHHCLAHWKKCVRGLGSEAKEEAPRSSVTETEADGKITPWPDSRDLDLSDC

Biological target: Cannabinoid receptor 2 (Homo sapiens, UniProt P34972)
Test: Displacement of [3H]-CP55940 from human CB2 receptor transfected in HEK-293EBNA cells after 90 mins by luminescence counting analysis
Type: cell-based

Work on `CCCCCCC(C)(C)c1cc(OC)c([C@H]2C=C(CO)[C@H]3C[C@@H]2C3(C)C)c(OC)c1` yielded a Ki of 11.2 nM.
